Test results from paper PMC10017042 (Science Advances, 2023).
“And” between values parts separate entries of the source, which are not always exact repeats. Equal values may be shown once. Read-outs that look alike come from different tables or passages of the source.

Legend:
HIV-1 [1] = conditions: before treatment (day 0)
Method: Here, the measurement from the cells obtained >1 year after the last visit was used.
The frequency of CD4^+ T cells expressing MS HIV-1 RNA was determined using TILDA with some modifications to the protocol described previously by our group ([68]). Briefly, total CD4^+ T cells were isolated from PBMCs by negative magnetic selection using EasySep CD4^+ Human CD4^+ T Cell Enrichment kit ([…] Technologies). Following isolation, 1.5 × 10^6 CD4^+ T cells/ml were rested in complete RPMI 1640 for 5 to 8 hours before 12 hours of stimulation with PMA (100 ng/ml) and ionomycin (1 μg/ml) (both from Sigma-Aldrich). After stimulation, CD4^+ T cells were washed and resuspended in serum-free RPMI 1640. Cells were counted and serially diluted accordingly: 1.8 × 10^6 cells/ml, 9 × 10^5 cells/ml, 3 × 10^5 cells/ml, and 1 × 10^5 cells/m. […] Positive wells at each dilution were recorded and used to determine the frequency of cells expressing tat/rev MS HIV-1 RNA by the maximum likelihood method.

HIV-1 [2] = test system: HIV-1
Method: Because of low cell numbers in the baseline sample, LUNA-06 (combination arm, participant stopped at day 7) was excluded from this primary end point analysis.
For quantification of CA US HIV-1 RNA, CD4^+ T cells were isolated from peripheral blood mononuclear cells (PBMCs) by negative selection using EasySep Human CD4^+ T Cell Enrichment Cocktail ([…] Technologies). Isolation of CD4^+ T cells was performed on ice or at 4°C (unless indicated otherwise by the manufacturer). Approximately 1.5 × 10^6 CD4^+ T cells were lysed in triplicate with TRI reagent. Total RNA was isolated by the phenol/chloroform isolation method following the manufacturer’s instructions. A minimum of 150 ng of total RNA was deoxyribonuclease (DNase)–treated following the manufacturer’s instructions (DNase I, Amplification Grade, Invitrogen), and complementary DNA (cDNA) synthesis was performed in duplicate with SuperScript II (Invitrogen) following the manufacturer‘s instructions. Absolute quantification of CA US HIV-1 RNA was performed following a modified version of Pasternak et al. methodology ([72]). Briefly, the first round of nested amplification was performed in a final volume of 25 μl using 10 μl of cDNA, 2.5 μl of 10× PCR buffer (Life Technologies), 1 μl of 50 mM MgCl2 (Life Technologies), 1 μl of 10 mM deoxynucleotide triphosphate (dNTP) (Life Technologies), 0.075 μl of 100 μM US forward primer, 0.075 μl of 100 μM US reverse 1 primer, and 0.2 μl of Platinum Taq polymerase (Life Technologies) at 95°C for 5 min, followed by 15 cycles at 95°C for 30 s, 55°C for 30 s, and 72°C for […]. The second round of amplification was performed in a final volume of 25 μl using 2 μl of preamplified cDNA, 2.5 μl of […] PCR buffer (Life Technologies), 1 μl of 50 mM MgCl2 (Life Technologies), 1 μl of 10 mM dNTPs (Life Technologies), 0.05 μl of 100 μM US forward primer, 0.05 μl of 100 μM US reverse 2 primer, 0.0375 μl of US probe, and 0.2 μl of Platinum Taq polymerase (Life Technologies) at 95°C for 5 min, followed by 45 cycles at 95°C for 30 s and 60°C for 1 min. The list of primers and probe is available in table S9. The absolute number of US copies in the PCR was calculated using a standard curve ranging from 2 to 512 copies of a plasmid containing the full-length HIV-1 genome (pNL4.3.Luc.R-E-). […] The quantity of CA US HIV-1 RNA was expressed as the number of copies per 150 ng of input RNA in reverse transcription.
The measurements related to the end points CA US HIV-1 RNA, MS HIV-1 RNA, plasma HIV-1 RNA, and drug plasma levels were described as median with IQR or full range. […] The fold change difference per study arm from pretreatment CA US HIV-1 RNA levels to the time points 6 hours, day 14, and day 42 after first dosing was calculated by adding up the fold change per individual divided by the total number of measurements available per time point. We analyzed the primary end point by a generalized estimating equation model to evaluate whether any difference in the CA US HIV-1 RNA existed at any time point during the trial in any of the three interventional arms compared to the control arm. An interaction term of time and treatment was included. […] The difference between the observed and expected amount of CA US HIV-1 RNA was calculated, and combination therapy was considered synergistic if the difference and its 95% confidence interval were >0. Because of the number of participants in this pilot, all secondary end points were exploratory.

BAF complex = BAF complex target gene expression (IL-10, SOCS3, CBX7; control B-ACT) by RT-qPCR in participants; format: in vivo, human; conditions: individual participants, one value each, listed as VPA
Excerpt: We reasoned that the effect on the expression of these gene targets at later time points (days 14 and 42) would be less useful as specific biomarker of BAF complex inhibition due to treatment interruptions and potential induction via other pathways. […] These findings are consistent with, and might be the consequence of, the generally lower plasma pyrimethamine Ctrough in participants that received the combined intervention regimen compared to those that received solely pyrimethamine.
RT-qPCR reactions were conducted using GoTaq qPCR Master Mix (Promega) following the manufacturer’s protocol. The following thermal cycling protocol was used for amplification: 3 min at 95°C, followed by 40 cycles of 95°C for 10 s and 60°C for 30 s. Expression data were calculated using the 2^−∆∆Ct methodology ([73]). Cyclophilin A was used as a housekeeping gene for the analysis. The list of primers is available in table S9.

CCCC(CCC)C(=O)O [valproic acid]
Median inducible reservoir (TILDA) (HIV-1 [1]): 14.8 cells per million CD4+ T cells | Mean fold change in CA US HIV-1 RNA (HIV-1 [2]; 6 hours after first dose, arm mean): 1.14 fold | Median fold change in CA US HIV-1 RNA (normalized to day 0, 0 hours) (HIV-1 [2]; day 0, t = 0 hours (pretreatment baseline, normalisation point)): 1 fold | Median fold change in CA US HIV-1 RNA (normalized to day 0, 0 hours) (HIV-1 [2]; day 0, t = 6 hours after first dose, arm median, PLWH on cART, oral PYR 200 mg day 1 then 100 mg once daily, VPA 30 mg/kg per day): 1.0667 fold | Median fold change in CA US HIV-1 RNA (normalized to day 0, 0 hours) (HIV-1 [2]; day 0, t = 6 hours after first dose, arm median, PLWH on cART, oral PYR 200 mg day 1 then 100 mg once daily, VPA 30 mg/kg per day, listed as VPA): 1.1 fold | Median fold change in CA US HIV-1 RNA (normalized to day 0, 0 hours) (HIV-1 [2]; day 14 (end of treatment), arm median, PLWH on cART): 1.2401 fold | Median fold change in CA US HIV-1 RNA (normalized to day 0, 0 hours) (HIV-1 [2]; day 42 (28 days after end of treatment), arm median, PLWH on cART): 1.2377 fold | Fold-induction in B-ACTIN gene expression at Day 0, 6 hours relative to Day 0, pretreatment (BAF complex; control gene): 2.5 and 0.94 and 0.9 and 0.69 and 0.61 and 0.68 and 1.12 | Fold-induction in CBX7 gene expression at Day 0, 6 hours relative to Day 0, pretreatment (BAF complex): 1.16 and 0.9 and 0.54 and 0.23 and 0.87 and 0.82 and 1.71 | Fold-induction in IL-10 gene expression at Day 0, 6 hours relative to Day 0, pretreatment (BAF complex): 0.42 and 1.25 and 1.10 and 0.94 and 1.87 and 0.64 | Fold-induction in SOCS3 gene expression at Day 0, 6 hours relative to Day 0, pretreatment (BAF complex): 0.38 and 1.92 and 0.53 and 0.85 and 2.47 and 0.67 and 0.52
